Patent US20260152497A1, “MIDAZO[4,5-c]QUINOLINE-4-AMINE COMPOUNDS AND CONJUGATES THEREOF, THEIR PREPARATION, AND THEIR [sequence] APPLICATIONS” (SANOFI, priority 2021, published 2026)

Legend:
human TLR7 [1] = biological target: T1, human TLR7 (Homo sapiens, UniProt Q9NYK1); assay: TLR7 pathway activation, parental HEK-Blue hTLR7 reporter cells (SEAP); type: cell-based; details: Table 1b, 96 hours, read-out: EC50 HEKBlue-hTLR7
T1 construct: host or cells: HEK293 (HEK-Blue hTLR7); engineered variants additionally transfected with tumor antigen genes
T1 sequence (Q9NYK1 27-1049): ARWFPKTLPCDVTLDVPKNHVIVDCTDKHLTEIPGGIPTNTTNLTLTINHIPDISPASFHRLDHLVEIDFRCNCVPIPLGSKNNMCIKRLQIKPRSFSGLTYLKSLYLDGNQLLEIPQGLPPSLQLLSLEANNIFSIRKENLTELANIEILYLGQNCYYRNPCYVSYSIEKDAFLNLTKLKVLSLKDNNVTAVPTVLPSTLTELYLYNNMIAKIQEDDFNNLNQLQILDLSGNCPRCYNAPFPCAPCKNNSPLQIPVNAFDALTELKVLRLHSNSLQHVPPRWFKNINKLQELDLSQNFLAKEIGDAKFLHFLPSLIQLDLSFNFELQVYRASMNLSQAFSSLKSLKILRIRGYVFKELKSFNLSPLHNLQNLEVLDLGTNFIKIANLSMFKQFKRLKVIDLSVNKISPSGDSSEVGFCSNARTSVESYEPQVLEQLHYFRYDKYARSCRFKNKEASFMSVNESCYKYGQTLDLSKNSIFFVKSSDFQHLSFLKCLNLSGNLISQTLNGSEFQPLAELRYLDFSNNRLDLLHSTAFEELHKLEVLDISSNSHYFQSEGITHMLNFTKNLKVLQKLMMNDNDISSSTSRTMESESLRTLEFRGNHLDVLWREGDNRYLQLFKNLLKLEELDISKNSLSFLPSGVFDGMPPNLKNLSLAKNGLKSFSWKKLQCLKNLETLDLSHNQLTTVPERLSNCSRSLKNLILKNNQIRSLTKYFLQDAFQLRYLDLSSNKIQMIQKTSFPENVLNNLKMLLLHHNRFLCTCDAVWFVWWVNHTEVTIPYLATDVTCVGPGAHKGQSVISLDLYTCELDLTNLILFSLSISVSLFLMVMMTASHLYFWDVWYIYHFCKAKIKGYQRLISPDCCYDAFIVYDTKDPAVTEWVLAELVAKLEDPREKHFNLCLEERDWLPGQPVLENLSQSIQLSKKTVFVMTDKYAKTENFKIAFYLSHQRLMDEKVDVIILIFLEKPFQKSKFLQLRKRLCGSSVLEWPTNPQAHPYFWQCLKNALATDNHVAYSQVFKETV
Protocol: (§1) The below tests involving measuring the in vitro activity of some compounds of the disclosure on human TLR7 pathway were carried out using parental HEK-Blue™ hTLR7 cells and engineered tumor antigen-expressing HEK-Blue™ hTLR7 cells respectively as reporter cells.
(§2) HEK-Blue™ hTLR7 Cells (#hkb-htlr7) and HEK-Blue™ hTLR8 Cells (#hkb-htlr8) cells from InvivoGen and the engineered tumor antigen expressing cells were used according to the manufacturer's instructions. The HEK-Blue™ hTLR7 and HEK-Blue™ hTLR8 cells were obtained by co-transfection of the hTLR7 or hTLR8 gene in HEK293 cells and an optimized Secreted Embryonic Alkaline Phosphatase (SEAP) reporter gene which is placed under the control of the IFN-β minimal promoter fused to five NF-κB and AP-1-binding sites. The human tumor antigen expressing HEK-Blue™ hTLR7 and hTLR8 cells were obtained by transfection of the tumor antigen genes in the parental cells followed by a polyclonal selection to enrich in cells overexpressing the tumor antigen. Stimulation with a TLR7/8 ligand activates NF-kB and AP-1 which induce the production of SLAP. The cells are seeded in 96-well plate at 3.10E4 cells/well and incubated 24 hours at 37C, 5% CO2 before adding the conjugates to be evaluated. The cells are subsequently incubated with 3-fold serial dilutions of each of the compounds (0.01 nM to 1 μM) for 96 hours at 37° C., 5% CO2. […]

human TLR7 [2] = biological target: T1, human TLR7; assay: TLR7 pathway activation, engineered tumor antigen-expressing HEK-Blue hTLR7 reporter cells (SEAP); type: cell-based; details: Table 1a, 96 hours, read-out: EC50 HEK-Blue-hTLR7-tumor Ag
Protocol: as §1, §2

| Substance | EC50 (human TLR7 [1]) | EC50 (human TLR7 [2]) |
| --- | --- | --- |
| CEACAM5_Tusamitamab_N361C-PEG24-R848 ADC [Example 40] | > 1000 nM | – |
| CEACAM5_Tusamitamab_K320C-PEG24-R848 ADC [Example 37] | > 1000 nM | – |
| EGFR_cetuximab-PEG24-R848 ADC [Example 23] | – | 4.1 nM |
